Cmax data for 1 compound are collected here from ChEMBL document CHEMBL4619775, “2-Arylbenzo[d]oxazole Phosphinate Esters as Second-Generation Modulators of Utrophin for the Treatment of Duchenne Muscular Dystrophy” (J Med Chem, 2020).

The conditions of this series: mouse, in vivo, iv, 1 mg/kg.

A word on the Cmax: it is the highest concentration seen after dosing. Consider `CCP(=O)(OC)c1ccc2oc(-c3ccc(F)cc3)nc2c1` (single isomer, unassigned; (+)), for which the peak concentration (Cmax) came out at 615 ng/mL.
